{"source": "patent US8846682B2", "about": "“Compound suitable for the treatment of synucleopathies” (Neuropore Therapies, Inc., priority 2009, dated 2014)", "test_system": "neuronal cells", "details": "doses ranging from 0.1-10 μM; FIG. 7"}
{"smiles": "CCCCNC(=O)C(Cc1c[nH]c2ccccc12)NC(=O)c1cnc(N2CCNCC2)s1", "note": "(stereo not shown) [NPT200-5]", "values": [{"measurement": "toxic effects on neuronal survival", "result": "no toxic effects"}]}
